# PubChem BioAssay AID488837 (National Center for Advancing Translational Sciences (NCATS), 2010)
# Chains of the proteins cited; added tags and fusions are not shown.
# UniProt O00167, whole entry: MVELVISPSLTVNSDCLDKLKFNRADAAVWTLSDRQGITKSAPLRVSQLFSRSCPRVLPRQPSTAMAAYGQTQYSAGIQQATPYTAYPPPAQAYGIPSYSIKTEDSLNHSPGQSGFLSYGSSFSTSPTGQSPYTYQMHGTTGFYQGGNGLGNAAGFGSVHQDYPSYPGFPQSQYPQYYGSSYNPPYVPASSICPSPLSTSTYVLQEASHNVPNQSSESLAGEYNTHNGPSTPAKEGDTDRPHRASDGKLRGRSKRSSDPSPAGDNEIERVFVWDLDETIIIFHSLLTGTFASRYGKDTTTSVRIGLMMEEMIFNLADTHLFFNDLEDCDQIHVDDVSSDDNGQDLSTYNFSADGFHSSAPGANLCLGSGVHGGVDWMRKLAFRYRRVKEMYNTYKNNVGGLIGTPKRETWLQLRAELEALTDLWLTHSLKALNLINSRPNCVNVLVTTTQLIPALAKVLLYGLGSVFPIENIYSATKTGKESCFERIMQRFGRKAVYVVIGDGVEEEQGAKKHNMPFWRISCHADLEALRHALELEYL
# The entries are a selection whose mix differs from that of the whole data set. Some of these compounds have results that are not shown, active ones among them. The source made the active and inactive calls. The call rests on the fitted dose curve; in most records, active means well fitted inhibition curve with a large enough effect; inconclusive means small, poorly fitted or top-dose-only effect, or effect the other way; inactive means flat fitted curve, though single readings scatter.
# Biological target: Protein phosphatase EYA2 (Homo sapiens) (UniProt O00167)
# Assay: qHTS Assay for Inhibitors of the Phosphatase Activity of Eya2
# Settings: recombinant Eya2, OMFP fluorescence dephosphorylation (OMFP is methylfluorescein phosphate); at 76.9 µM (top of the series)
# From the text: The Eya family of proteins are essential co-activators of the Six1 transcription factor. Six1 is a developmental gene that is abnormally re-expressed in a large percentage of breast cancers. This over-expression plays a causal role in the initiation and metastatic development of breast cancers. The Eya family of proteins was also found to contain a unique HAD phosphatase domain with protein tyrosine phosphatase activity which can potentially play a role in Six1-mediated breast tumorigenesis. […] We have developed and optimized a 1536 well fluorescence-based HTS assay targeting the phosphatase activity of Eya2. Inhibitors found against Eya2 could serve as potential therapeutic tools to inhibit Six1-mediated breast tumorigenesis and to increase the efficiency of radiation and certain chemo therapy. These inhibitors could also be used as chemical probes to study the function of Eya2's phosphatase activity and its role in Six1-mediated breast tumorigenesis.
# The Eya2 enzyme was kindly provided by the laboratory of Dr. Rui Zhao. The 3-O-methyl-fluorescein phosphate (OMFP) substrate and all buffer reagents were purchased from Sigma Aldrich. qHTS Assay Setup: 1. Buffer- 50 mM HEPES pH 7.5, 50 mM NaCl, 5 uM MgCl2, 0.05% BSA, 1 mM DTT. 2. OMFP Stock- 10 mM solution prepared in 100% DMSO and stored in single use aliquots at -20C. Assay Procedure- 1. Dispense 1.5 ul per well of Eya2 at 0.2 uM in black medium binding 1536 well Greiner plate 2. Transfer 23 nl of compound and control compound (EGTA) to plate 3. Incubate at ambient for 10 minutes 4. Dispense 1.5 ul per well of OMFP at 50 uM 5. Incubate at ambient for 10 minutes 6. Read on ViewLux using Excitation = 485 nm, Emission = 525 nm
# On the % scale 0 is the no-effect control and ±100 the full control effect.
row,SMILES,"activity, negative = inhibition"
1,COc1ccc(Br)c(C(=O)NCC2(N3CCCCC3)CCCCC2)c1,inactive: -28.2%
2,CC(C)Oc1ccc(C(=O)NCC2(N(C)C)CCCCC2)cc1,inactive: 14.9%
3,CN(C)c1cccc(C(=O)NCC2(N(C)C)CCCCC2)c1,inactive: 0.339%
4,O=C(OC1CN2CCC1CC2)C(CO)(c1ccccc1)c1ccccc1 (stereo not drawn),inactive: 4.87%
5,COc1cccc(C(=O)NCC2(N3CCCCC3)CCCCC2)c1,inactive: 6.19%
6,COc1ccc(Cl)cc1C(=O)NCC1(N(C)C)CCCCC1,inactive: 5.54%
7,O=C(NCC1(N2CCCCC2)CCCCC1)c1cccc(Cl)c1,inactive: 16.5%
8,CN(C)C1(CNC(=O)c2ccc(Br)cc2)CCCCC1,inactive: 5.46%
9,C=CCN1CCN(CCOC(=O)C(O)(c2ccccc2)c2ccccc2)CC1,inactive: 4.09%
10,O=C(NCC1(N2CCCCC2)CCCCC1)c1cc(F)c(F)cc1Cl,inactive: -3.04%
11,COc1ccc(C(=O)NCC2(N(C)C)CCCCC2)cc1,inactive: 7.69%
12,Cc1cc(C(=O)NCC2(N3CCCCC3)CCCCC2)ccc1[N+](=O)[O-],inactive: 8.67%
13,CCN1CCCC(OC(=O)C2(O)c3ccccc3C=Cc3ccccc32)C1 (stereo not drawn),inactive: -1.83%
14,O=C(NCC1(N2CCCCC2)CCCCC1)c1cccc(Br)c1,inactive: -24.1%
15,Cc1ccccc1C(=O)NCC1(N2CCCCC2)CCCCC1,inactive: -3.67%
16,CN(C)C1CCCC1OC(=O)C(O)(c1ccccc1)c1ccccc1 (stereo not drawn),inactive: 8.22%
17,CN(C)c1ccc(C(=O)NCC2(N(C)C)CCCCC2)cc1,inactive: -12.7%
18,CCN(CC)CC(C)C(C)OC(=O)C(O)(c1ccccc1)c1ccccc1 (stereo not drawn),inactive: 7.59%
19,COc1cc(SC)ccc1C(=O)NCC1(N(C)C)CCCCC1,inactive: -2.66%
20,CC(C)N1C(=O)CC2(CCN(CCOC(=O)C(O)(c3ccccc3)c3ccccc3)CC2)C1=O,inactive: 3.75%
21,Cc1ccc(C(=O)NCC2(N3CCCCC3)CCCCC2)cc1,inactive: 0.283%
22,O=C(NCC1(N2CCCCC2)CCCCC1)c1cc([N+](=O)[O-])ccc1Cl,inactive: -12.7%
23,CN1[C@@H]2CC[C@H]1CC(OC(=O)C(O)(c1ccccc1)c1ccccc1)C2 (stereo partly drawn),inactive: 8.52%
